## Yeast mating assay 2: variants of the scFv Ab-95

Binding partner: SARS-CoV-2 spike HR2 peptide, sequence PDVDLGDISGINAS.

Parent scFv Ab-95: VH joined to VL by a 15-residue (Gly4Ser)3 linker. Changes lie in the light chain CDRs alone.
VH: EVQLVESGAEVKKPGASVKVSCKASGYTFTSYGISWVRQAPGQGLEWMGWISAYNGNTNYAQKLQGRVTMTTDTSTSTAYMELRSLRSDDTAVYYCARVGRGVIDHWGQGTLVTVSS
VL: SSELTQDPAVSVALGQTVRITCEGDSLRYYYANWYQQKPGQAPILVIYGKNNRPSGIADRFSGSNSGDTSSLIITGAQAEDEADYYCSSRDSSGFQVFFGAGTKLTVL

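The starting antibody came from a phage panning campaign against this peptide. The library (AAYL52) carries one to three amino acid substitutions per variant, with no insertions or deletions. The assay is AlphaSeq: two haploid yeast populations carry antibody and antigen on their surface. After mating in shaken culture at 30 °C for 16 h, diploids were selected and their barcode pairs sequenced. Each replicate has its own calibration line, from reference interactions of the BCL2 family. Each pool was mated in three replicate cultures.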

The parent's light chain CDRs are EGDSLRYYYAN, GKNNRPS, SSRDSSGFQVF; each variant's own CDRs replace them letter for letter.
All variants listed here change S89 of the VL, counted from its first residue.
Values are log10 of the apparent Kd in nM; lower means stronger binding.
A mean of the replicates is given; it leaves out those without a signal.
"nd" means that the variant was in the library but no mating with the target was seen in any replicate; the authors take this as a sign of poor binding, and no number exists.
Nonspecific signal, from three strains lacking the peptide, appeared in 28% of pairings of library AAYL52, centred on 3.91 (5% of these signals below 2.90); values are not corrected for it. The control count says in how many pairings with the empty strains this scFv gave a signal.
For reference, the parent read 2.31 as the reference entry and 2.25 as a member of this library.

Variant EGDSLRYYYAR | GKNNWPS | SVRDSSGFQVF gave 3.78 (1 of 3 replicates; controls 3 of 9).
Variant EGDYLRYYYAN | GKNNRPS | SCRDSSGFFVF gave 3.70 (2 of 3 replicates; controls 0 of 9).
Variant EGDSLRYYWAN | GKNNRPS | SCRQSSGFQVF gave 3.53 (1 of 3 replicates; controls 2 of 9).
Variant EGDSLNYYYAN | GKNTRPS | SIRDSSGFQVF gave 3.65 (2 of 3 replicates; controls 2 of 9).
Variant EGDSIRYYYAN | GKNNRPS | SFRDSSGFQVF gave 3.54 (2 of 3 replicates; controls 4 of 9).
Variant EGDSLRYYYAN | GKNNRPS | SARDSSMFQVF gave 1.88 (3 of 3 replicates; controls 5 of 9).
Variant EGGSLRYYYAW | GKNNRPS | SRRDSSGFQVF gave 4.64 (1 of 3 replicates; controls 1 of 9).
Variant EGDSLRYYYAN | VKNNRPS | SYRDSSGFQVF gave 4.42 (1 of 3 replicates; controls 4 of 9).
Variant EGDSCVYYYAN | GKNNRPS | SYRDSSGFQVF gave 3.02 (1 of 3 replicates; controls 3 of 9).
Variant EMDSLRYYVAN | GKNNRPS | SERDSSGFQVF gave 3.66 (2 of 3 replicates; controls 2 of 9).
Variant EGDHLRYYYAN | GKNQRPS | SIRDSSGFQVF gave 1.78 (3 of 3 replicates; controls 3 of 9).
Variant EGDSLRWYYAN | GKNNRPS | SPRDSSWFQVF gave 3.71 (3 of 3 replicates; controls 2 of 9).
Variant LGDSLRYYYFN | GKNNRPS | SHRDSSGFQVF gave 4.31 (2 of 3 replicates; controls 3 of 9).
Variant EGDSLQYYYAN | GKLNRPS | SYRDSSGFQVF gave nd (0 of 3 replicates; controls 0 of 9).
Variant EGDSLRYYYAN | GKNNRPD | SYRDSSGFEVF gave nd (0 of 3 replicates; controls 2 of 9).
Variant EGDSGRYYYAN | GKNNAPS | SERDSSGFQVF gave 4.40 (3 of 3 replicates; controls 5 of 9).
Variant EGDSLRYYYAN | GKNNRPS | SCSDSSGFQVF gave 2.91 (3 of 3 replicates; controls 0 of 9).
Variant EGDSLRYYYAN | GLNNFPS | SLRDSSGFQVF gave nd (0 of 3 replicates; controls 0 of 9).
Variant EGDSLRYYYAN | GKNNRPS | SHRQSSGFCVF gave 3.56 (1 of 3 replicates; controls 0 of 9).
Variant EGDSLRYYYAN | GYNNRPS | SIRDSSGFGVF gave 4.04 (2 of 3 replicates; controls 3 of 9).
Variant DGDSLRYYYAN | GKNNRPS | SIRDSSGFQVY gave nd (0 of 3 replicates; controls 2 of 9).
Variant EGDSLRYLYAN | GKNNRPS | SPRDSSGFQVF gave 2.85 (3 of 3 replicates; controls 7 of 9).
Variant EGTSLRYYYAN | GKNNYPS | SMRDSSGFQVF gave 3.70 (1 of 3 replicates; controls 3 of 9).
Variant EGDSLRPYVAN | GKNNRPS | SDRDSSGFQVF gave 3.24 (2 of 3 replicates; controls 2 of 9).
Variant EGDSLRYYYAN | GKNNRPH | SKRASSGFQVF gave 2.49 (3 of 3 replicates; controls 0 of 9).
Variant TGTSLRYYYAN | GKNNRPS | SLRDSSGFQVF gave 3.14 (3 of 3 replicates; controls 4 of 9).
Variant EHDSLRYYYAN | GKNNRPS | SRRDHSGFQVF gave 3.29 (3 of 3 replicates; controls 3 of 9).
Variant EGDSLRYYYAN | GKNNRPS | SQRESSKFQVF gave nd (0 of 3 replicates; controls 1 of 9).
Variant EGDSLRYYYSN | GKNNRPS | SLRDSLGFQVF gave 4.68 (2 of 3 replicates; controls 2 of 9).
Variant EGDSLRYPYAN | GQNNRPS | SMRDSSGFQVF gave 1.49 (3 of 3 replicates; controls 4 of 9).

2 of these entries, quoted again:

CDR-L1,CDR-L2,CDR-L3,"mean, log10 nM",seen in,empty controls
EGDSLNYYYAN,GKNTRPS,SIRDSSGFQVF,3.65,2/3,2/9
EGGSLRYYYAW,GKNNRPS,SRRDSSGFQVF,4.64,1/3,1/9

Source: Engelhart et al. 2022 (doi:10.1038/s41597-022-01779-4), MIT Lincoln Laboratory and A-Alpha Bio; data file from the FLAb repository.